Laboratory results reported in ChEMBL document CHEMBL1129037 (J Med Chem, 1996).

Amino acid sequences for entries named in this document (tags omitted).
UniProt P23977, whole entry: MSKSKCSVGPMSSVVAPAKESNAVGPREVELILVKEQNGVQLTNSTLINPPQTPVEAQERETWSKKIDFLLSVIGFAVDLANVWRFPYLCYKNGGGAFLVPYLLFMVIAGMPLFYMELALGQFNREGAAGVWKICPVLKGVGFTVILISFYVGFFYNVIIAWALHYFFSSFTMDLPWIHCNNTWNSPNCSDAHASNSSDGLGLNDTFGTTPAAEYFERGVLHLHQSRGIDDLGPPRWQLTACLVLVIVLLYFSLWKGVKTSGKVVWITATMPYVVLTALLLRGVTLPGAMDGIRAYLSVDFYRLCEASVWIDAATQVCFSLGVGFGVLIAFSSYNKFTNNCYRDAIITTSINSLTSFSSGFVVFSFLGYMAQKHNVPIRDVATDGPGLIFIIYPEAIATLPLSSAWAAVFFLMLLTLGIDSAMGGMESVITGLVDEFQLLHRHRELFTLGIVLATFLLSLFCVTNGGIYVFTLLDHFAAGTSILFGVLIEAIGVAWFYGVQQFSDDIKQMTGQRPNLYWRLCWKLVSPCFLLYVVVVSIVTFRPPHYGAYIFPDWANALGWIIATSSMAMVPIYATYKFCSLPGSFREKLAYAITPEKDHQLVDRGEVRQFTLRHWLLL

Experiments:
[1] = biological target: T1, Sodium-dependent dopamine transporter (Rattus norvegicus, UniProt P23977); test: Inhibitory activity against [3H]dopamine uptake in rat striatal tissue; assay type: functional, tissue-based, Striatum
[2] = biological target: T1, Sodium-dependent dopamine transporter; test: Inhibition of [3H]WIN-35428 binding to dopamine transporter using rat striatal tissue; assay type: tissue-based, Striatum

Row | SMILES | IC50 [1] | IC50 [2]
1 | COC(=O)[C@@H](c1ccc(C(C)(C)C)cc1)[C@@H]1CCCCN1 | 9.35 µM | 13.5 µM
2 | COC(=O)C(c1ccc(C(C)(C)C)cc1)C1CCCCN1 (single isomer, unassigned) | 52.5 µM | 41.3 µM
